Test results reported in EP1321467A2, “High affinity inhibitors for target validation and uses thereof” (Princeton University, priority 1999, dated 2000).

Sequences of proteins named here, by UniProt entry; tags and fusion partners are left off. Residues count along the entry.
UniProt P06241, 1-534 isoform P06241-2: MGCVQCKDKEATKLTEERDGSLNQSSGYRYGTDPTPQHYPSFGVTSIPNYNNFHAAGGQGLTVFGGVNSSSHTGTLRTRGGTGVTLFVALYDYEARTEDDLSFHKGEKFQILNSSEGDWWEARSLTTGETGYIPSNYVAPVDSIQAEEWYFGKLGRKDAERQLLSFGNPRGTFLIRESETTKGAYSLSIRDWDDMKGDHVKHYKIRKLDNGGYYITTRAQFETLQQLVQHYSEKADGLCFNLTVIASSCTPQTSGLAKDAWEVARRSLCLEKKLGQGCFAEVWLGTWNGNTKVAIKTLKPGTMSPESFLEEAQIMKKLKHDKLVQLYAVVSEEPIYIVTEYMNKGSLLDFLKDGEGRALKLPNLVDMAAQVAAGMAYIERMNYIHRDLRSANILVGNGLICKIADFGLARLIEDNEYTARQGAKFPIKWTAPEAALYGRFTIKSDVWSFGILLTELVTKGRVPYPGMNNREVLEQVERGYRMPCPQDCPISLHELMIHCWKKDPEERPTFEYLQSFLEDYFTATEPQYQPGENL

Target: T1, WT Fyn (Homo sapiens, UniProt P06241)
T1 construct: GST (N); made in house; host or cells: E. coli DH5a, pGEX-KT
Assay: In vitro kinase inhibition assay
Type: biochemical

Compound `CC(C)(C)n1nc(-c2cccc3ccccc23)c2c(N)ncnc21` [4-amino-1-(tert-butyl)-3-(1'-naphthyl)pyrazolo[3,4-d]pyrimidine] has an IC50 of 0.6 µM.
